# Measured values reported in patent US20050074834A1 (priority 2001, published 2005).
# Tests used:
# chromatophores = experiment: cells; settings: read-out: Threshold concentration PPM
Compound,minimal effective concentration (chromatophores) [µg/mL],effect on melanophores (melanophores)
N=C(N)NCCN1CCCCCCC1 [Guanethidine],100 to 1000,
CN(C)CCCN1c2ccccc2CCc2ccccc21 [Imipramine],1 to 100,
COc1ccc(CCN(C)CCCC(C#N)(c2ccc(OC)c(OC)c2)C(C)C)cc1OC (stereo not drawn) [Verapamil],,does not alter melanophores
